From publication PMC12921483 (Frontiers in Pharmacology, 2026)

System: HeLa
Assay: CCK-8 antiproliferative assay, HeLa
Assay type: cell-based

| Compound | anti-cervical cancer activity in words |
| --- | --- |
| O=C(/C=C/c1ccc(N2CCCC2)cc1)c1ccc(OC(F)(F)F)cc1 [Compound B7] | completely inactive |
| O=C(/C=C/c1ccc(N2CCCC2)cc1)c1cccc(OC(F)(F)F)c1 [Compound B6] | completely inactive |
